Literature values, collected in patent US20240228623A1.
pIC50: −log10 of the molar value.

Sequences of proteins named here, by UniProt entry; tags and fusion partners are left off. Residues count along the entry.
UniProt P55899, 24-297 limits assumed: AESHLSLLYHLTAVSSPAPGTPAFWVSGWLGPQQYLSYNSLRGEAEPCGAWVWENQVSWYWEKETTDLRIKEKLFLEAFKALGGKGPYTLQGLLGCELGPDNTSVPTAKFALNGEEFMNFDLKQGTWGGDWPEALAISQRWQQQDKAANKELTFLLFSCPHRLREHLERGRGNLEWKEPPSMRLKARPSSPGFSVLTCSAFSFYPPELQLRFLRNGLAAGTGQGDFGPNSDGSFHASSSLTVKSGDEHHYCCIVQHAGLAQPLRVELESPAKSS
UniProt P61769, 21-119 partner limits assumed: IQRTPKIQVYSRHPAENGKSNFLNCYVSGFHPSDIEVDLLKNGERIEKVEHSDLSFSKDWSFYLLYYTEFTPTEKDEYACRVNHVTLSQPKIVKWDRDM

Molecular target: FcRn (Homo sapiens, UniProt P55899)
Conditions: FcRn competition assay, small molecules

In the case of N#CC(C(=O)NCCc1ccc(C(N)=O)cc1)c1nc2ccccc2nc1N1CCCCCC1 (stereo not shown), the pIC50 is given as less than 3.30.
